The species named for one test is Homo sapiens. Description: Selectivity index, ratio of IC50 for inhibition of EGFR T790M mutant (unknown origin) to IC50 for inhibition of wild type EGFR (unknown origin).
In test [1] the target is T1, Epidermal growth factor receptor (Homo sapiens, UniProt P00533). As to the kind of experiment: Inhibition of EGFR autophosphorylation in human HepG2 cells assessed as fold change in EGFR protein level at 440 nM pretreated with compound for 1 hr followed by EGF addition by western blot analysis. The class given is cell-based.
The target of test [2] is T1, Epidermal growth factor receptor. As to the kind of experiment: Inhibition of EGFR autophosphorylation in human HepG2 cells assessed as fold change in phosphorylated EGFR protein level at 440 nM pretreated with compound for 1 hr followed by EGF addition by western blot analysis. Format: cell-based.

Consider `COc1cc(-c2nc(-c3ccc(-c4nc(-c5nnc(-c6ccncc6)o5)c[nH]4)cc3)no2)cc(OC)c1OC`, for which the Ratio IC50 in the test listed under Homo sapiens worked out at 10. For the same molecule, the fold change (FC) is 0.22 in test [1] and 0.17 in test [2].
